Laboratory results taken from patent US6919425B2, “Isolation of a cell-specific internalizing peptide that infiltrates tumor tissue for targeted drug delivery” (Board of Regents, The University of Texas System, priority 2000, dated 2005).
This is a selection: effects in other tests are not listed, and their absence says nothing.

Test system: MDA177Tu cells
Assay: In vitro internalization assay, MDA177Tu cells
Conditions: FITC-conjugated peptides, FIG. 1A

Row | Sequence | effect of shifting the position of HN-1 within the peptide or jumbling the sequence: inhibition of internalization
1 | GGGTSPLNIHNGQKLGGGS | did not inhibit its internalization
2 | GSRRASVTSPLNIHNGQKL | did not inhibit its internalization
